Our source for the CC50 values is patent US20250057819A1, “DRUG COMBINATIONS FOR INHIBITING CORONAVIRUS REPLICATION” (priority 2021, published 2025).

The series in a line: Cell viability assay (MTT) in HRT-18 cells. The settings on record: human, CC50 (μM).
[1] abbreviates: drug 2 alone (fast synergy screening table).
[2] abbreviates: drug alone, HRT-18 cells, 48 h treatment, MTT.

Each structure is given as a SMILES string.

As to `C[C@H]1O[C@@H](O[C@H]2[C@@H](O)C[C@H](O[C@H]3[C@@H](O)C[C@H](O[C@H]4CC[C@@]5(C)[C@H](CC[C@@H]6[C@@H]5C[C@@H](O)[C@]5(C)[C@@H](C7=CC(=O)OC7)CC[C@]65O)C4)O[C@@H]3C)O[C@@H]2C)C[C@H](O)[C@@H]1O` [Digoxin], the CC50 (commonly the concentration at which the toxic effect on the cells reaches its halfway point) at 48 h runs as follows: under setting [1], 0.075 µM; under setting [2], 0.075 µM.

Consider `Oc1c(Cl)cc(Cl)c(Cl)c1Cc1c(O)c(Cl)cc(Cl)c1Cl` [Hexachlorophene], for which the CC50 at 48 h is, setting by setting: under setting [1], greater than 10 µM; under setting [2], greater than 10 µM.
